# Source: ChEMBL document CHEMBL4602697 (J Med Chem, 2020)
# The chains behind the UniProt entries cited, without tags or fusion partners. Where a name states a change or a piece, a line headed by the entry shows the natural chain unless it says otherwise.
# UniProt P11229: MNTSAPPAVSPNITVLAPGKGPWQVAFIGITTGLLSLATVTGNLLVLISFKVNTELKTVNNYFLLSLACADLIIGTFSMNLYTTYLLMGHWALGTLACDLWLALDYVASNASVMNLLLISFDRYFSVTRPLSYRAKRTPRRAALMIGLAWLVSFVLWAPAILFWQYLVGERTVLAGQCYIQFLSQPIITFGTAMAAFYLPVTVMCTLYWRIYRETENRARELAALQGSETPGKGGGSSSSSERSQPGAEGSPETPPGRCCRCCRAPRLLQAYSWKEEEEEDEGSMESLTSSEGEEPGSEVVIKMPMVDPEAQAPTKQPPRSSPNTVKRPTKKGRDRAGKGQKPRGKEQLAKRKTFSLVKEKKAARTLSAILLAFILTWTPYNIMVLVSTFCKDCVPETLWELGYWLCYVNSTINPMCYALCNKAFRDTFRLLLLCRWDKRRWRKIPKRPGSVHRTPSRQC
# Molecular target: Muscarinic acetylcholine receptor M1 (Homo sapiens, UniProt P11229)
# Test: biochemical
smiles,measurement,value
NC(=O)C(c1ccccc1)(c1ccccc1)[C@@H]1CCN(CCc2ccc3c(c2)CCO3)C1 [DARIFENACIN],pKi,8.07 to 8.26

# pKi: −log10 of the molar value.
